Source: paper PMC12943719 (Molecules, 2026)

By UniProt entry, the sequences of proteins in these tests, tags left out. Where a name states a change or a piece, a line headed by the entry shows the natural chain unless it says otherwise.
UniProt Q07343: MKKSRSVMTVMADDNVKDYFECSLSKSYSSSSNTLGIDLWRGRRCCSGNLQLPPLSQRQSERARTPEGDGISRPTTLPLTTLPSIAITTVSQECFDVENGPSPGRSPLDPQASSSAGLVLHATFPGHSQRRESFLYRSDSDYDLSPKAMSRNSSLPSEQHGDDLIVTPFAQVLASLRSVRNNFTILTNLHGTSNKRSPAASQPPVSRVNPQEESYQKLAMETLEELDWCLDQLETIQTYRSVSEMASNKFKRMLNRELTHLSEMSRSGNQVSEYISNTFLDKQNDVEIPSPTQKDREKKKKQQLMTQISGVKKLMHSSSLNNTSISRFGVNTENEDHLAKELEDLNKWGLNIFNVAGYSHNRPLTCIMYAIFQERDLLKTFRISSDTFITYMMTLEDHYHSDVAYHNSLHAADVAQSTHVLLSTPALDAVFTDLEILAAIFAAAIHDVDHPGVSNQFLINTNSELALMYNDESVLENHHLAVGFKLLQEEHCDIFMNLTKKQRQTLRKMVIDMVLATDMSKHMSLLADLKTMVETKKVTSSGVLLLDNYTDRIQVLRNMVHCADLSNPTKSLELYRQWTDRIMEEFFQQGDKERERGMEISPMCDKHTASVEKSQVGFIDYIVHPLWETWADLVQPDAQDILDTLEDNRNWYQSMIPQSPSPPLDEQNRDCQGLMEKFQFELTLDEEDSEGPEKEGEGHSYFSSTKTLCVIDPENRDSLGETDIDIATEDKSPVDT

Target: PDE4B1 (Homo sapiens, UniProt Q07343)
Experiment: PDE4 activity determination, hydrolysis of [3H]-cAMP (PDE-SPA kit), PDE4B1
Assay type: biochemical
Settings: human recombinant PDE4B1; mean ± SD of three to four experiments in duplicate; read-out: Potency (IC50 nM) PDE4B1

`CCn1nc(-c2ccccc2)c(C(C)=O)c(Nc2ccc(C(=O)O)cc2)c1=O` [2n, 4-(5-Acetyl-2-ethyl-3-oxo-6-phenyl-2,3-dihydropyridazin-4-ylamino)benzoic Acid] was tested, and the IC50 was 9.24 ± 0.65 nM.
